Source: patent US7511119B2, “PRAME peptide analogues” (MannKind Corporation, priority 2005, dated 2009)

Tested on: splenocytes
Test: Ex vivo IFN-gamma production after re-stimulation with wild-type NY-ESO-1157-165 (ELISA)
Format: in vivo, mice
Conditions: 10 μM wild-type peptide, 3 and 6 days; FIG. 17
Excerpt: Supernatants were harvested and the concentration of IFN-γ measured by ELISA.

## C165V: NY-ESO-1 157-165 analog with C165V substitution (SLLMWITQV; UniProt P78358 157-165, looked up, variant C165V) [Peptide C165V]
  IFN-gamma production upon ex vivo re-stimulation with wild-type peptide: failed to induce increased capability
